Source: patent publication US20050014765A1, “Aryl-heteroaromatic products, compositions comprising them and use” (Aventis Pharma S.A., priority 2003, published 2005)

The chains behind the UniProt entries cited, without tags or fusion partners.
UniProt P02550, whole entry: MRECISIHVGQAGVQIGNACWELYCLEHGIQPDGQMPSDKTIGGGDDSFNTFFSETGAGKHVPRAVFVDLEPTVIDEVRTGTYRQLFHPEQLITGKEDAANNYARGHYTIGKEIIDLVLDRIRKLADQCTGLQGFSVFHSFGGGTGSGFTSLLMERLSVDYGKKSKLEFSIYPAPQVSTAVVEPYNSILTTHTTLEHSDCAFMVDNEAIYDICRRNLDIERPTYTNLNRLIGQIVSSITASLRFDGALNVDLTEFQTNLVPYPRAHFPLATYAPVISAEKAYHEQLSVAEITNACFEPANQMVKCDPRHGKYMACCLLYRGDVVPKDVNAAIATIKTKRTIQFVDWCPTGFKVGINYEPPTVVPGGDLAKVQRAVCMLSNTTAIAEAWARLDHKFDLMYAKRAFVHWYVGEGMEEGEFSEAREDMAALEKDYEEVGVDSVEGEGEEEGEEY
UniProt P02554, whole entry: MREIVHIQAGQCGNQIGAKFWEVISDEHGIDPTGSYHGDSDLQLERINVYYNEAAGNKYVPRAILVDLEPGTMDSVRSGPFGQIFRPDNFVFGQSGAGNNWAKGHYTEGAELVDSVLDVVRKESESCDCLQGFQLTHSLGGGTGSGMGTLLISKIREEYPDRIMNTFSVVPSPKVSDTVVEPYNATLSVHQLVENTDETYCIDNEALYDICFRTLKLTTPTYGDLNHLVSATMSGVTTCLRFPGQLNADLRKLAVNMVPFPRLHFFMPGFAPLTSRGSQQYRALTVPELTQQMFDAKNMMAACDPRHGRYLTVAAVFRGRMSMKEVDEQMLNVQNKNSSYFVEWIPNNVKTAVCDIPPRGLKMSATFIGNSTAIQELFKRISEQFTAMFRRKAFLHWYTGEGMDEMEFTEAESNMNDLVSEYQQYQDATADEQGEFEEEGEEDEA

Experiments:
HCT116 cells = test: Inhibition of proliferation of the HCT116 human colon tumor line ([14C]-thymidine incorporation); conditions: read-out: Inhibition of HCT116 proliferation IC 50, 48 hours incubation at 37° C.
Procedure: Test for Determining the Inhibition of Proliferation of the HCT116 Human Colon Tumor Line
The proliferation of HCT116 cells is evaluated by mesuring the incorporation of [^14C]-thymidine in the following way. The HCT166 cells (from the ATCC) are cultured in a DMEM medium (Gibco) which contains 10% of fetal calf serum and antibiotics (1% penicillin, 1% streptomycin). To perform the proliferation test, the cells are seeded into 96-well cytostar microplates (Amersham) at the rate of 5000 cells per well. The [^14C]-thymidine (0.1 μCi/well) and the products to be evaluated are subsequently added. Variable concentrations of products up to 10 μM are used; the DMSO (solvent used to dissolve the products) should not exceed 0.5% in the medium. 48 hours after incubation at 37° C., the radioactivity incorporated into the cells is measured by counting the plate in a Tri-Lux counter (Wallac). The IC50 is defined as the concentration of product which reduces the radioactivity by 50% compared with an untreated control. A product with an IC50 of less than 10 μm is regarded as cytotoxic.

[1] = molecular target: Tubulin purified from pig brains (Sus scrofa, UniProt P02550+P02554); test: Assessment of the inhibition of tubulin polymerization (turbidimetry at 350 nm); conditions: read-out: Inhibition of tubulin polymerization IC 50; concentration which inhibits the rate of polymerization by 50%; tubulin 1 mg/ml, 37° C.
Procedure: Assessment of the Inhibition of Tubulin Polymerization
Tubulin is purified from pig brains according to published methods (Shelanski et al., 1973, Proc. Natl. Acad. Sci. USA, 70, 765-768. Weingarten et al., 1975, Proc. Natl. Acad. Sci. USA, 72, 1858-1862). Briefly, the brains are ground and centrifuged in an extraction buffer. The tubulin, present in the extract supernatant is subjected to two successive cycles of polymerization at 37° C. and depolymerization at 4° C., before being separated from the MAPs (Microtubule Associated Proteins) by chromatography on a phosphocellulose P11 column (Whatman). The tubulin thus isolated is more than 95% pure. It is stored in a buffer known as RB/2 30% glycerol, the composition of which is 50 mM MES-NaOH [2-(N-morpholino)ethanesulfonic acid], pH 6.8; 0.25 mM MgCl2; 0.5 mM EGTA; 30% (v/v) glycerol, 0.2 mM GTP (guanosine 5′-triphosphate).
The polymerization of the tubulin into microtubules is monitored by turbidimetry as follows: the tubulin is adjusted to a concentration of 10 μm (1 mg/ml) in the RB/2 30% glycerol buffer, to which are added 1 mM GTP and 6 mM MgCl2. […] The increase in turbidity of the solution is monitored at 350 nm. […]

- pIC50 (HCT116 cells): 7.94
- pIC50 [1]: 6.38
Structure (SMILES): COc1cc(OC)cc(N2CCN(C(=O)c3cn(CCO)cc3-c3ccccc3)CC2)c1

pIC50: −log10 of the molar value.
